Reference: ChEMBL document CHEMBL6177950, “Discovery of potent and selective CDK2 inhibitors with high safety and favorable bioavailability for the treatment of cancer” (Eur J Med Chem, 2025)

How the values were obtained:
[1] = Selectivity index, ratio of IC50 for CDK1/Cyclin A2 (unknown origin) to IC50 for CDK2/Cyclin E1 (unknown origin)
[2] = Selectivity index, ratio of IC50 for CDK4/Cyclin D1 (unknown origin) to IC50 for CDK2/Cyclin E1 (unknown origin)
[3] = Selectivity index, ratio of IC50 for CDK6/Cyclin D2 (unknown origin) to IC50 for CDK2/Cyclin E1 (unknown origin)

## CCC(C)n1cc(-c2nc(NC3CCN(S(=O)(=O)C4CC4)CC3)ncc2F)cc(F)c1=O (stereo not drawn)
[1]
  Ratio IC50: 15
[2]
  Ratio IC50: > 100
[3]
  Ratio IC50: > 100
